# Measurements published in patent US11701371B2, “ENPP1 inhibitors and their use for the treatment of cancer” (THE BOARD OF TRUSTEES OF THE LELAND STANFORD JUNIOR …, priority 2017, dated 2023).
# System: 4T1-luciferase tumor
# Assay: 4T1-luciferase tumor model with IR, cGAMP and anti-CTLA-4: tumor volume and survival
# Assay type: in vivo, mouse
# Conditions: IR pretreatment with compound 1 and anti-CTLA-4
smiles,measurement,value
"COc1cc2ncnc(N3CCC(CCP(=O)(O)O)CC3)c2cc1OC [Compound 1, dimethyl (2-(1-(6,7-dimethoxyquinazolin-4-yl)piperidin-4-yl)ethyl)phosphonic acid]",cure rate,10%
